The numbers were not newly measured in PMC3729432, which cites them from elsewhere.

The target in this data set is FRB FRB (Homo sapiens) (UniProt P42345). Description: fluorescence polarization. A general note: Fluorescence polarisation rises when a labelled molecule tumbles more slowly, as on binding a larger partner.

The Kd is the concentration at which binding is half-saturated. On to FKBP12 (from UniProt P62942), for which the dissociation constant (Kd) is 6.2 nM.
